Experimental data published in PubChem BioAssay AID652154 (Broad Institute, 2013).
This is a selection; strong and weak results do not stand in their true shares. Calls of active or inactive are those of the source.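 Rule for the calls: active = mean replicate inhibition at least 60% with every replicate also reaching 60%; inconclusive = only one of the two criteria is met; inactive = mean below 60% and not all replicates reaching 60%.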

experiment: PAX8 transcriptional activity inhibition in RMG-I – RMG-I cells, luciferase, single concentration, primary screen (AID 652154); settings: RMG-I TPO-luciferase reporter, SteadyGlo, 24 h; at 12.6 µM; active compounds read high;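 note: luciferase light reporting Pax8 driven TPO promoter activity; plate controls were median of neutral control wells for no effect and mitoxantrone controls for full effect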

| SMILES | inhibition |
| --- | --- |
| CCCCn1nnnc1C(c1ccnc2ccccc12)N1CCC(n2c(=O)[nH]c3ccccc32)CC1 (stereo unspecified) | inactive: 12.1% |
| COc1cc(OC)c(C(=O)NCC2(N(C)C)CCCCC2)cc1OC | inactive: 1.16% |
| O=C(NCC1(N2CCOCC2)CCCCC1)c1cc(F)c(F)cc1Cl | inactive: -23.5% |
| CCC(c1nnnn1C(C)(C)C)N1CCC(n2c(=O)[nH]c3ccccc32)CC1 (stereo unspecified) | inactive: -39.8% |
| COc1ccc(CN(CCCl)CCCl)cc1Cl | inactive: -16% |
| CN(C)c1cccc(C(=O)NCC2(N3CCCCC3)CCCCC2)c1 | inactive: 19.1% |
| CC(C)c1ccc(NC2CCN(C(=O)OC(C)(C)C)CC2)cc1 | inactive: -99.6% |
| Cc1ccc(C(=O)NCC2(N(C)C)CCCCC2)o1 | inactive: -20.8% |
| CCCOc1ccc(C(=O)NCC2(N(C)C)CCCCC2)cc1OC | inactive: 10.1% |
| COc1ccc(C(c2nnnn2C2CCCC2)N2CCC(n3c(=O)[nH]c4ccccc43)CC2)cc1 (stereo unspecified) | inactive: -8.72% |
| O=C(NCC1(N2CCCCC2)CCCCC1)c1cncc(Br)c1 | inactive: 5.62% |
| CSc1ccc(C(=O)NCC2(N3CCOCC3)CCCCC2)cc1 | inactive: -7.44% |
| O=C(NCC1(N2CCCCC2)CCCCC1)c1cccc([N+](=O)[O-])c1 | inactive: 5.68% |
| CCN1CCC(Nc2ccc(Cl)cc2)CC1 | inactive: -2.82% |
| O=c1[nH]c2ccccc2n1C1CCN(C(c2ccccc2OC(F)(F)F)c2nnnn2C2CCCC2)CC1 (stereo unspecified) | inactive: 7.75% |
| CC(C)(C)n1nnnc1C(c1ccccc1OC(F)(F)F)N1CCC(n2c(=O)[nH]c3ccccc32)CC1 (stereo unspecified) | inactive: 35.9% |
| O=C(NCC1(N2CCCCC2)CCCCC1)c1ccc(OC(F)F)cc1 | inactive: 9.96% |
| CN1CCN(CCOC(=O)C(O)(c2ccccc2)c2ccccc2)CC1 | inactive: -0.63% |
| CC(C)c1ccc(C(=O)NCC2(N3CCOCC3)CCCCC2)cc1 | inactive: -27.2% |
| COc1ccc(NC2CCN(C(=O)OC(C)(C)C)CC2)cc1 | inactive: -19.8% |
| CCCCn1nnnc1C(c1cccc2ccccc12)N1CCC(n2c(=O)[nH]c3ccccc32)CC1 (stereo unspecified) | inactive: 19.6% |
| COc1cc(C(=O)NCC2(N3CCCCC3)CCCCC2)ccc1OC(F)F | inactive: 9.48% |
| O=C(NCC1(N2CCCCC2)CCCCC1)c1cccc(C(F)(F)F)c1 | inactive: -5.8% |
| O=P1(N(CCCl)CCCl)SCCCS1 | inactive: -20.5% |

| SMILES | inhibition |
| --- | --- |
| CCCCn1nnnc1C(c1cc2ccccc2o1)N1CCC(n2c(=O)[nH]c3ccccc32)CC1 (stereo unspecified) | inactive: 39.6% |
| CCCCOc1ccc(C(=O)NCC2(N3CCOCC3)CCCCC2)cc1 | inactive: -8.47% |
| O=C(NCC1(N2CCCCC2)CCCCC1)c1ccc(F)cc1 | inactive: 23.8% |
| CCOC(=O)N1CCC(Nc2ccc(F)cc2)CC1 | inactive: -1.75% |
| CCOc1ccc(C)cc1CN(CCCl)CCCl | inactive: 6.61% |
| CC(C)(C)n1nnnc1C(c1ccccc1)N1CCC(n2c(=O)[nH]c3ccccc32)CC1 (stereo unspecified) | inactive: -6.72% |
| O=c1[nH]c2ccccc2n1C1CCN(C(c2cccc3ccccc23)c2nnnn2C2CCCC2)CC1 (stereo unspecified) | inactive: 40.1% |
| CCOC(=O)N1CCC(Nc2cccc(C)c2)CC1 | inactive: -140% |
| COc1cc(C(=O)NCC2(N(C)C)CCCCC2)ccc1OC(F)F | inactive: -0.557% |
| O=c1[nH]c2ccccc2n1C1CCN(C(c2ccccc2)c2nnnn2C2CCCCC2)CC1 (stereo unspecified) | inactive: -3.75% |
| CSc1ccccc1C(=O)NCC1(N2CCCCC2)CCCCC1 | inactive: 13.8% |
| Cc1cccc(NC2(C#N)CCN(Cc3ccccc3)CC2)c1 | inactive: -18.8% |
| O=C(NCC1(N2CCCCC2)CCCCC1)c1ccc(=O)[nH]c1 | inactive: -4.63% |
| O=C(NCC1(N2CCCCC2)CCCCC1)c1cccs1 | inactive: -2.43% |
| CCCCn1nnnc1C(CC)N1CCC(n2c(=O)[nH]c3ccccc32)CC1 (stereo unspecified) | inactive: -2.2% |
| CCCCn1nnnc1C(c1cccs1)N1CCC(n2c(=O)[nH]c3ccccc32)CC1 (stereo unspecified) | inactive: 1.71% |
| COc1ccc(C(=O)NCC2(N3CCCCC3)CCCCC2)cc1 | inactive: -0.611% |
| CC(C)(C)OC(=O)N1CCC(N(C(=O)c2ccccc2)c2ccc(F)cc2)CC1 | inactive: -2.75% |
| COc1ccc(C(=O)NCC2(N3CCCCC3)CCCCC2)c(OC)c1OC | inactive: 3.91% |
| CCC(c1nnnn1C1CCCC1)N1CCC(n2c(=O)[nH]c3ccccc32)CC1 (stereo unspecified) | inactive: -20% |
| CCOC(=O)N1CCC(Nc2ccc(OC)cc2)CC1 | inactive: 2.4% |
| CCCCn1nnnc1C(c1ccc(OC)cc1)N1CCC(n2c(=O)[nH]c3ccccc32)CC1 (stereo unspecified) | inactive: 3.81% |
| N#CC1(Nc2ccccc2)CCN(Cc2ccccc2)CC1 | inactive: -15.6% |
| O=C(NCC1(N2CCCCC2)CCCCC1)c1ccc(Cl)s1 | inactive: 8.78% |

| SMILES | inhibition |
| --- | --- |
| O=c1[nH]c2ccccc2n1C1CCN(C(c2cc3ccccc3o2)c2nnnn2C2CCCCC2)CC1 (stereo unspecified) | inactive: -8.93% |
| COc1ccc(Cl)cc1C(=O)NCC1(N2CCOCC2)CCCCC1 | inactive: 1.5% |
| O=c1[nH]c2ccccc2n1C1CCN(C(c2ccccc2OC(F)(F)F)c2nnnn2C2CCCCC2)CC1 (stereo unspecified) | inactive: -23.5% |
| Cc1cc(C)cc(N(C(=O)c2ccccc2)C2CCN(C(=O)OC(C)(C)C)CC2)c1 | inactive: 6.7% |
| O=c1[nH]c2ccccc2n1C1CCN(C(c2cc3ccccc3o2)c2nnnn2C2CCCC2)CC1 (stereo unspecified) | inactive: -13.9% |
| CCCOc1ccc(C(=O)NCC2(N(C)C)CCCCC2)cc1 | inactive: -8.46% |
| CC(C)(C)OC(=O)N1CCC(Nc2ccccc2)CC1 | inactive: 2.2% |
| O=C(O)C1(Nc2ccccc2)CCN(Cc2ccccc2)CC1 | inactive: -15.4% |
| NN(c1ccccc1)C1CCN(CCc2ccccc2)CC1 | inactive: 7.18% |
| CN1CCC(Nc2ccc(F)c(Cl)c2)CC1 | inactive: -17.2% |
| CN1CCC(Nc2ccc(Cl)cc2)CC1 | inactive: -2.89% |
| COc1cccc(C(c2nnnn2C2CCCC2)N2CCC(n3c(=O)[nH]c4ccccc43)CC2)c1OC (stereo unspecified) | inactive: 27.8% |
| COc1cc(OC)cc(C(=O)NCC2(N3CCOCC3)CCCCC2)c1 | inactive: 35.1% |
| COc1cccc(C(=O)N(c2cc(C)cc(C)c2)C2CCN(C(=O)OC(C)(C)C)CC2)c1 | inactive: 26.7% |
| Cc1ccc(NC2(C#N)CCN(Cc3ccccc3)CC2)cc1 | inactive: -5.28% |
| Cc1ccc(C(=O)NCC2(N3CCCCC3)CCCCC2)o1 | inactive: -27.1% |
| COc1cc(OC)cc(C(=O)NCC2(N3CCCCC3)CCCCC2)c1 | inactive: 12.5% |
| O=c1[nH]c2ccccc2n1C1CCN(C(c2ccnc3ccccc23)c2nnnn2C2CCCCC2)CC1 (stereo unspecified) | inactive: -10.4% |
| COc1cccc(C(c2nnnn2C2CCCCC2)N2CCC(n3c(=O)[nH]c4ccccc43)CC2)c1OC (stereo unspecified) | inactive: 44.2% |
| CC(=O)N(c1ccccc1)C1CCNCC1 | inactive: -12.4% |
| CCC(c1nnnn1C1CCCCC1)N1CCC(n2c(=O)[nH]c3ccccc32)CC1 (stereo unspecified) | inactive: 5.87% |
| O=C(NCC1(N2CCCCC2)CCCCC1)c1ccco1 | inactive: -14% |
| CN(C)c1ccc(C(=O)NCC2(N3CCCCC3)CCCCC2)cc1 | inactive: 0.831% |
| Cn1c(=O)[nH]cc(N(CCCl)CCCl)c1=O | inactive: 1.32% |

| SMILES | inhibition |
| --- | --- |
| Cc1ccccc1NC1(C#N)CCN(Cc2ccccc2)CC1 | inactive: 0.222% |
| CCN1CCC(Nc2cccc(F)c2)CC1 | inactive: 10.3% |
| COc1ccc(C(c2nnnn2C2CCCCC2)N2CCC(n3c(=O)[nH]c4ccccc43)CC2)cc1 (stereo unspecified) | inactive: -19% |
| CC(C)(C)n1nnnc1C(c1ccnc2ccccc12)N1CCC(n2c(=O)[nH]c3ccccc32)CC1 (stereo unspecified) | inactive: 16.3% |
| CC(C)(C)OC(=O)N1CCC(N(C(=O)c2ccccc2)c2ccc(Cl)cc2)CC1 | inactive: -0.563% |
| N#Cc1ccc(C(=O)NCC2(N3CCCCC3)CCCCC2)cc1 | inactive: 18.7% |
| CC(C)(C)n1nnnc1C(c1cccc2ccccc12)N1CCC(n2c(=O)[nH]c3ccccc32)CC1 (stereo unspecified) | inactive: 29.7% |
| C/C(N)=N\P(=O)(Oc1ccccc1)Oc1ccccc1 | inactive: 7.6% |
| c1ccc(CN2CCC(Nc3ccccc3)CC2)cc1 | inactive: -5.62% |
| Cc1cc(N(CCCl)CCCl)ccc1C=O | inactive: 21.6% |
| CCCN1CCC(Nc2cc(OC)cc(OC)c2)CC1 | inactive: 7.66% |
| O=c1[nH]c2ccccc2n1C1CCN(C(c2ccccc2)c2nnnn2C2CCCC2)CC1 (stereo unspecified) | inactive: 2.47% |
| CN(C)C1(CNC(=O)c2cccc(C#N)c2)CCCCC1 | inactive: 1.12% |
| COc1ccc(C(=O)NCC2(N3CCOCC3)CCCCC2)cc1OC | inactive: 12.3% |
| O=c1[nH]c2ccccc2n1C1CCN(C(c2ccnc3ccccc23)c2nnnn2C2CCCC2)CC1 (stereo unspecified) | inactive: 32.5% |
| O=c1[nH]c2ccccc2n1C1CCN(C(c2cccs2)c2nnnn2C2CCCCC2)CC1 (stereo unspecified) | inactive: 8.59% |
| O=C(NCC1(N2CCOCC2)CCCCC1)c1cc(Br)ccc1Cl | inactive: -8.66% |
| CCCCn1nnnc1C(c1ccccc1)N1CCC(n2c(=O)[nH]c3ccccc32)CC1 (stereo unspecified) | inactive: 14.4% |
| COc1cc(C(=O)NCC2(N3CCOCC3)CCCCC2)cc(OC)c1C | inactive: 9.47% |
| CCCCn1nnnc1C(c1cccc(OC)c1OC)N1CCC(n2c(=O)[nH]c3ccccc32)CC1 (stereo unspecified) | inactive: 19% |
| O=C(OC1CN2CCC1CC2)C1c2ccccc2C=Cc2ccccc21 (stereo unspecified) | inactive: -2.02% |
| O=c1[nH]c2ccccc2n1C1CCN(C(c2cccs2)c2nnnn2C2CCCC2)CC1 (stereo unspecified) | inactive: -10.2% |
| CCOC(=O)N1CCC(Nc2ccc(C)cc2)CC1 | inactive: 3.39% |
| COc1cccc(C(c2nnnn2C(C)(C)C)N2CCC(n3c(=O)[nH]c4ccccc43)CC2)c1OC (stereo unspecified) | inactive: 28.4% |
